Test results as given in publication PMC7486785 (Proceedings of the National Academy of Sciences of the …, 2020).

What was measured:
Duck egg lysozyme (DEL) = assay: bio-layer interferometry; settings: parent: est. 2.5e7 M-1; read off a plot
Flex^R101D lysozyme = Flex^R101D lysozyme (UniProt P00698); assay: bio-layer interferometry; settings: read off a plot

Substance | Ka (Duck egg lysozyme (DEL)) [M⁻¹] | Ka (Flex^R101D lysozyme; parent: est. 1.7e7) [M⁻¹] | Ka (Flex^R101D lysozyme; parent: est. 1.5e7 M-1) [M⁻¹]
Hy10 Fab S52R | < 100000 | < 100000 | 
Hy10 Fab S56Y |  | 3.4e+07 | 3.5e+07
Hy10 Fab Y58F | 9e+07 |  | 
Hy10 Fab Y33H |  | 1.8e+07 | 
Hy10 Fab S56R |  |  | 3.7e+06
Hy10 Fab L4F |  | 5.6e+06 | 6.3e+06
Hy10 Fab I29F; S52T; Y53F; Y58F | 6.8e+09 |  | 
Hy10 Fab S52T; Y58F | 3.6e+08 |  | 
Hy10 Fab I29F; S52T | 1.4e+08 |  | 
Hy10 Fab S52R; Y53F | < 100000 |  | 
Hy10 Fab S31N |  | 1.4e+07 | 1.4e+07
Hy10 Fab Y53F; Y58F | 1e+08 |  | 
